The record followed here is patent US11730817B2, “Pro-cyclic dinucleotides and pro-cyclic dinucleotide conjugates for cytokine induction” (INVIVOGEN, priority 2017, dated 2023).

Chains of the proteins cited; added tags and fusions are not shown.
UniProt Q86WV6, whole entry R71H/G230A/H232R/R293Q: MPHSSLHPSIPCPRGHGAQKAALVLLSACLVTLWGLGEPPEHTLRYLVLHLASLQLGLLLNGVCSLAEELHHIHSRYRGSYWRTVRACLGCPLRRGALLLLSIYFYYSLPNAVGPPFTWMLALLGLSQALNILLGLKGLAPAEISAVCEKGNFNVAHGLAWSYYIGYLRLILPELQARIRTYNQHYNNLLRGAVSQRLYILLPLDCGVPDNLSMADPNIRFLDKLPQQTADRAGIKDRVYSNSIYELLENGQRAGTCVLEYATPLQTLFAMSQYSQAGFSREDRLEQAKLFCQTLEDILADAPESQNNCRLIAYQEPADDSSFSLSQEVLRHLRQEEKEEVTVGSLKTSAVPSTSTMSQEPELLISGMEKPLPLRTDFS

For the first assay, the system named is Type I IFNs. The assay can be described thus: Whole-blood assay, type I IFN induction (HEK-Blue IFN-α/β-KO-STING readout). It counts as cell-based, human. The following applies: read-out: EC50 (μM) IFN in WBA.
Take `CCCCCCCCCCCCCCCC(=O)N[C@H](C(=O)N[C@@H](C)C(=O)Nc1ccc(CSP2(=O)OC[C@H]3O[C@@H](n4cnc5c(N)ncnc54)[C@H](F)[C@@H]3OP(=O)(O)OC[C@H]3O[C@@H](n4cnc5c(O)ncnc54)[C@H](F)[C@@H]3O2)cc1)C(C)C` (stereo partly shown) [CL849]: the EC50 is 0.12 µM.

The target of another assay is STING (Homo sapiens, UniProt Q86WV6, G230A/H232R/R293Q/R71H). Put plainly: cell-based.
Settings: not given
`CCCCCCCC(=O)N[C@H](C(=O)N[C@@H](C)C(=O)Nc1ccc(CSP2(=O)OC[C@H]3O[C@@H](n4cnc5c(N)ncnc54)[C@H](F)[C@@H]3OP(=O)(O)OC[C@H]3O[C@@H](n4cnc5c(O)ncnc54)C[C@@H]3O2)cc1)C(C)C` (stereo partly shown) [CL821] came in with a half-maximal effective concentration (EC50) of 230 nM.

`CCCCCCCCCCCCCC(=O)OC(CCCCCCCCCCC)CC(=O)N[C@H](C(=O)N[C@@H](C)C(=O)Nc1ccc(CSP2(=O)OC[C@H]3O[C@@H](n4cnc5c(N)ncnc54)[C@H](F)[C@@H]3OP(=O)(O)OC[C@H]3O[C@@H](n4cnc5c(O)ncnc54)C[C@@H]3O2)cc1)C(C)C` (stereo partly shown) [CL838] displayed a half-maximal effective concentration (EC50) of 90 nM.

For the compound `CCCCCCCC(=O)N[C@H](C(=O)N[C@@H](C)C(=O)Nc1ccc(CSP2(=O)OC[C@H]3O[C@@H](n4cnc5c(N)ncnc54)[C@H](F)[C@@H]3OP(=O)(S)OC[C@H]3O[C@@H](n4cnc5c(O)ncnc54)[C@H](F)[C@@H]3O2)cc1)C(C)C` (stereo partly shown) [CL840], the concentration giving a half-maximal response (EC50) was 5 nM.

On to `CCCCCCCC(=O)N[C@H](C(=O)N[C@@H](C)C(=O)Nc1ccc(CSP2(=O)OC[C@H]3O[C@@H](n4cnc5c(N)ncnc54)[C@H](F)[C@@H]3OP(=O)(O)OC[C@H]3O[C@@H](n4cnc5c(O)ncnc54)[C@H](F)[C@@H]3O2)cc1)C(C)C` (stereo partly shown) [CL841], for which the concentration for a half-maximal effect (EC50) was found to be 190 nM.

`CCCCCCCC(=O)N[C@H](C(=O)N[C@@H](C)C(=O)Nc1ccc(CSP2(=O)OC[C@H]3O[C@@H](n4cnc5c(O)ncnc54)[C@H](F)[C@@H]3OP(=O)(SCc3ccc(NC(=O)[C@H](C)NC(=O)[C@@H](NC(=O)CCCCCCC)C(C)C)cc3)OC[C@H]3O[C@@H](n4cnc5c(N)ncnc54)[C@H](F)[C@@H]3O2)cc1)C(C)C` (stereo partly shown) [CL842] gave a 50% effective concentration (EC50) of 6 nM.

Turning to `CCCCCCCCCCCCCCCC(=O)N[C@H](C(=O)N[C@@H](CCCNC(N)=O)C(=O)Nc1ccc(CSP2(=O)OC[C@H]3O[C@@H](n4cnc5c(N)ncnc54)[C@H](F)[C@@H]3OP(=O)(O)OC[C@H]3O[C@@H](n4cnc5c(O)ncnc54)C[C@@H]3O2)cc1)C(C)C` (stereo partly shown) [CL848], the half-maximal effective concentration (EC50) was found to be 10 nM.

`CCCCCCCCCCCCCCCC(=O)N[C@H](C(=O)N[C@@H](C)C(=O)Nc1ccc(CSP2(=O)OC[C@H]3O[C@@H](n4cnc5c(N)ncnc54)[C@H](F)[C@@H]3OP(=O)(O)OC[C@H]3O[C@@H](n4cnc5c(O)ncnc54)[C@H](F)[C@@H]3O2)cc1)C(C)C` (stereo partly shown) [CL849] came in with an EC50 of 120 nM.

`CCCCCCCCCCCCCCCC(=O)N[C@H](C(=O)N[C@@H](CCCNC(N)=O)C(=O)Nc1ccc(CSP2(=O)OC[C@H]3O[C@@H](n4cnc5c(N)ncnc54)[C@H](F)[C@@H]3OP(=O)(S)OC[C@H]3O[C@@H](n4cnc5c(O)ncnc54)[C@H](F)[C@@H]3O2)cc1)C(C)C` (stereo partly shown) [CL853]: it took 20 nM to reach a half-maximal effect (EC50).

The compound `CCCCCCCCCCCCCC(=O)OC(CCCCCCCCCCC)CC(=O)N[C@H](C(=O)N[C@@H](CCCNC(N)=O)C(=O)Nc1ccc(CSP2(=O)OC[C@H]3O[C@@H](n4cnc5c(N)ncnc54)[C@H](F)[C@@H]3OP(=O)(O)OC[C@H]3O[C@@H](n4cnc5c(O)ncnc54)[C@H](F)[C@@H]3O2)cc1)C(C)C` (stereo partly shown) [CL860] returned an EC50 of 440 nM.

`CCCCCCCCCCCCCC(=O)OC(CCCCCCCCCCC)CC(=O)N[C@H](C(=O)N[C@@H](CCCNC(N)=O)C(=O)Nc1ccc(CSP2(=O)OC[C@H]3O[C@@H](n4cnc5c(N)ncnc54)[C@H](F)[C@@H]3OP(=O)(S)OC[C@H]3O[C@@H](n4cnc5c(O)ncnc54)[C@H](F)[C@@H]3O2)cc1)C(C)C` (stereo partly shown) [CL861] gave a concentration giving a half-maximal response (EC50) of 270 nM.

In turn, `CCCCCCCCCCCCCCCC(=O)N[C@H](C(=O)N[C@@H](C)C(=O)Nc1ccc(CSP2(=O)OC[C@H]3O[C@@H](n4cnc5c(N)ncnc54)[C@H](F)[C@@H]3OP(=O)(S)OC[C@H]3O[C@@H](n4cnc5c(O)ncnc54)[C@H](F)[C@@H]3O2)cc1)C(C)C` (stereo partly shown) [CL863] came in with a concentration for a half-maximal effect (EC50) of 40 nM.

As to `CC(C)[C@H](NC(=O)[C@@H](CN)N1C(=O)C=CC1=O)C(=O)N[C@@H](C)C(=O)Nc1ccc(CSP2(=O)OC[C@H]3O[C@@H](n4cnc5c(N)ncnc54)[C@H](F)[C@@H]3OP(=O)(S)OC[C@H]3O[C@@H](n4cnc5c(O)ncnc54)[C@H](F)[C@@H]3O2)cc1` (stereo partly shown) [CL874], a half-maximal response (EC50) required 6810 nM.
